Assays:
[1] = target: melanocortin 5 receptor (MC5R) (Homo sapiens, UniProt P33032); test: cAMP accumulation assay (HTRF), agonist and/or antagonist activity at MC5R (Example 1, Table 14); conditions: dose-response against MC5R
[2] = target: human melanocortin 4 receptor (MC4R) (Homo sapiens, UniProt P32245); test: cAMP accumulation assay (HTRF), antagonist and/or agonist activity at MC4R (Example 1, Table 13, FIGS. 5-8); conditions: Table 13; dose-response against MC4R; cAMP
[3] = target: human melanocortin 3 receptor (MC3R) (Homo sapiens, UniProt P41968); test: cAMP accumulation assay (HTRF), antagonist and/or agonist activity at MC3R (Example 1, Table 12, FIGS. 1-4); conditions: MC3R, antagonist activity, dose-response, cAMP
[4] = target: melanocortin 1 receptor (MC1R) (Homo sapiens, UniProt Q01726); test: cAMP accumulation assay (HTRF), agonist and/or antagonist activity at MC1R (Example 1, Table 11); conditions: dose-response, cAMP

Sequences of proteins named here, by UniProt entry; tags and fusion partners are left off.
UniProt P33032, whole entry: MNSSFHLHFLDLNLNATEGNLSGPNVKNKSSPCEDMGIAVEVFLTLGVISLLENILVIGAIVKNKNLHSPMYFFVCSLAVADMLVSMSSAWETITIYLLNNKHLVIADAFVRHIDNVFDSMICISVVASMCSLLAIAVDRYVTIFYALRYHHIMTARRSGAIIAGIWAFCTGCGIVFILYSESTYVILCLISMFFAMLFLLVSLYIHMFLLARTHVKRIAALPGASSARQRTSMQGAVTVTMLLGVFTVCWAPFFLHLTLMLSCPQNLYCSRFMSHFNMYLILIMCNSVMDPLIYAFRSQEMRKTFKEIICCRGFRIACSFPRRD
UniProt P32245, whole entry: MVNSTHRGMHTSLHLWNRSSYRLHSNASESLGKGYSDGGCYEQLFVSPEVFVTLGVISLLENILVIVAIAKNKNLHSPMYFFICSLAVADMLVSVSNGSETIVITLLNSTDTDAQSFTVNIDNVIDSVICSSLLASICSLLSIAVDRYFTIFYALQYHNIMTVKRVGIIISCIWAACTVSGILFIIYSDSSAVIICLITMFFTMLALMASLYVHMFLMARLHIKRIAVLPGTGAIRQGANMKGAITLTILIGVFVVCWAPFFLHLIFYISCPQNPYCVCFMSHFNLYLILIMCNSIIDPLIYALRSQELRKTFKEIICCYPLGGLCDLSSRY
UniProt P41968, whole entry: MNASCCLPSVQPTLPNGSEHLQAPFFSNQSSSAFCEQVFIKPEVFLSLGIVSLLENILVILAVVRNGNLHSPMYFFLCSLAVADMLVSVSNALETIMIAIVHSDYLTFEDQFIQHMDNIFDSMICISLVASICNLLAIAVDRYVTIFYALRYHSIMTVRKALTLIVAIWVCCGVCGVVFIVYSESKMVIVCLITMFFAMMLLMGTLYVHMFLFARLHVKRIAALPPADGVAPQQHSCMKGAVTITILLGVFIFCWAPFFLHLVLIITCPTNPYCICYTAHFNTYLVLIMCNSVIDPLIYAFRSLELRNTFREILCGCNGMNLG
UniProt Q01726, whole entry: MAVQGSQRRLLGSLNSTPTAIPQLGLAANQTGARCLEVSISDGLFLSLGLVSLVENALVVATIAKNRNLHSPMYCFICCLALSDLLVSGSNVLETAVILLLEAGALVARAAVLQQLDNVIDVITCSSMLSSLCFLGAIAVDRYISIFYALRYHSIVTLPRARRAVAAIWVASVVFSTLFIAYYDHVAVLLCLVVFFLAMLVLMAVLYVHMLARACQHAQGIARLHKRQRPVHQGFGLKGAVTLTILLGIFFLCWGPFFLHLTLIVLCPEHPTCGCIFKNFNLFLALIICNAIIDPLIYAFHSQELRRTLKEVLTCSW

With `CCCC[C@H](NC(C)=O)C(=O)N[C@H]1CC(=O)NCCCC[C@@H](C(=O)N[C@H](CCCCN)C(=O)N2CCC[C@@H]2C(=O)N[C@@H](C(N)=O)C(C)C)NC(=O)[C@H](Cc2c[nH]c3ccccc23)NC(=O)[C@H](CCCNC(=N)N)NC(=O)[C@@H](Cc2ccc3ccccc3c2)NC(=O)[C@@H]2CCCN2C1=O` the EC50 [1] was 0.14 nM.
With `CCCC[C@H](NC(C)=O)C(=O)N[C@H]1CC(=O)NCCCC[C@@H](C(=O)N[C@@H](CCCNC(=N)N)C(=O)N[C@@H](C(=O)N2CCC[C@@H]2C(N)=O)C(C)C)NC(=O)[C@H](Cc2c[nH]c3ccccc23)NC(=O)[C@H](CCCNC(=N)N)NC(=O)[C@@H](Cc2ccc3ccccc3c2)NC(=O)[C@@H]2CCCN2C1=O` the IC50 [2] was 89 nM, the IC50 [3] was 1.67 nM and the EC50 [4] was 7.4 nM.
With `CCCC[C@H](NC(C)=O)C(=O)N[C@H]1CC(=O)NCCCC[C@@H](C(=O)N[C@@H](C(=O)N2CCC[C@@H]2C(N)=O)C(C)C)NC(=O)[C@H](Cc2c[nH]c3ccccc23)NC(=O)[C@H](CCCNC(=N)N)NC(=O)[C@@H](Cc2ccc3ccccc3c2)NC(=O)c2cccc(c2)CNC1=O` the IC50 [2] was greater than 1000 nM, the IC50 [3] was greater than 1000 nM and the EC50 [4] was greater than 1000 nM.
Molecule `CCCC[C@H](NC(C)=O)C(=O)N[C@H]1CC(=O)NCCCC[C@@H](C(=O)N[C@@H](C(N)=O)C(C)C)NC(=O)[C@H](Cc2c[nH]c3ccccc23)NC(=O)[C@H](CCCNC(=N)N)NC(=O)[C@@H](Cc2ccc3ccccc3c2)NC(=O)[C@@H]2CCCN2C1=O` has an IC50 [2] of 100 nM, an IC50 [3] of 14 nM and an EC50 [4] of 120 nM.
With `CCCC[C@H](NC(C)=O)C(=O)N[C@H]1CC(=O)NCCCC[C@@H](C(=O)N[C@@H](CCCNC(=N)N)C(=O)N[C@H](C(=O)N2CCC[C@H]2C(N)=O)C(C)C)NC(=O)[C@H](Cc2c[nH]c3ccccc23)NC(=O)[C@H](CCCNC(=N)N)NC(=O)[C@@H](Cc2ccc3ccccc3c2)NC(=O)[C@@H]2CCCN2C1=O` the IC50 [2] was 55 nM, the IC50 [3] was 2.03 nM and the EC50 [4] was 16 nM.
In the case of `CCCC[C@H](NC(C)=O)C(=O)N[C@H]1CC(=O)NCCCC[C@@H](C(=O)N[C@H](CC(=O)O)C(N)=O)NC(=O)[C@H](Cc2c[nH]c3ccccc23)NC(=O)[C@H](CCCNC(=N)N)NC(=O)[C@@H](Cc2ccc3ccccc3c2)NC(=O)[C@@H]2CCCN2C1=O`, the IC50 [2] is reported as 240 nM, the IC50 [3] is reported as 25 nM and the EC50 [4] is reported as 82 nM.
For `CCCC[C@H](NC(C)=O)C(=O)N[C@H]1CC(=O)NCCCC[C@@H](C(=O)N[C@@H](CCCCN)C(=O)N[C@H](C(=O)N2CCC[C@H]2C(N)=O)C(C)C)NC(=O)[C@H](Cc2c[nH]c3ccccc23)NC(=O)[C@H](CCCNC(=N)N)NC(=O)[C@@H](Cc2ccc3ccccc3c2)NC(=O)[C@@H]2CCCN2C1=O`, the IC50 [2] was 5.9 nM, the IC50 [3] was 0.43 nM and the EC50 [4] was 0.82 nM.
Work on `CCCC[C@H](NC(C)=O)C(=O)N[C@H]1CC(=O)NCCCC[C@@H](C(=O)N[C@H](CCCNC(=N)N)C(=O)N[C@@H](C(=O)N2CCC[C@@H]2C(N)=O)C(C)C)NC(=O)[C@H](Cc2c[nH]c3ccccc23)NC(=O)[C@H](CCCNC(=N)N)NC(=O)[C@@H](Cc2ccc3ccccc3c2)NC(=O)[C@@H]2CCCN2C1=O` yielded an IC50 [2] of 13 nM, an IC50 [3] of 2.06 nM and an EC50 [4] of 7 nM.
With `CCCC[C@H](NC(C)=O)C(=O)N[C@H]1CC(=O)NCCCC[C@@H](C(=O)N[C@@H](CC(=O)O)C(N)=O)NC(=O)[C@H](Cc2c[nH]c3ccccc23)NC(=O)[C@H](CCCNC(=N)N)NC(=O)[C@@H](Cc2ccc3ccccc3c2)NC(=O)[C@@H]2CCCN2C1=O` the IC50 [2] was 95 nM, the IC50 [3] was 3.48 nM and the EC50 [4] was 190 nM.
`CCCC[C@H](NC(C)=O)C(=O)N[C@H]1CC(=O)NCCCC[C@@H](C(=O)N[C@@H](C(=O)N2CCC[C@@H]2C(N)=O)C(C)C)NC(=O)[C@H](Cc2c[nH]c3ccccc23)NC(=O)[C@H](CCCNC(=N)N)NC(=O)[C@@H](Cc2ccc3ccccc3c2)NC(=O)[C@H]([C@@H](C)CC)NC1=O` showed an IC50 [2] of 22 nM, an IC50 [3] of 9.51 nM and an EC50 [4] of 28 nM.
`CCCC[C@H](NC(C)=O)C(=O)N[C@H]1CC(=O)NCCCC[C@@H](C(=O)N[C@H](CCCCN)C(=O)N[C@@H](C(=O)N2CCC[C@@H]2C(N)=O)C(C)C)NC(=O)[C@H](Cc2c[nH]c3ccccc23)NC(=O)[C@H](CCCNC(=N)N)NC(=O)[C@@H](Cc2ccc3ccccc3c2)NC(=O)[C@@H]2CCCN2C1=O` gave an IC50 [2] of 81 nM, an IC50 [3] of 3.02 nM and an EC50 [4] of 35 nM.
For `CCCC[C@H](NC(C)=O)C(=O)N[C@H]1CC(=O)NCCCC[C@@H](C(=O)N[C@H](C)C(=O)N[C@H](C)C(N)=O)NC(=O)[C@H](Cc2c[nH]c3ccccc23)NC(=O)[C@H](CCCNC(=N)N)NC(=O)[C@@H](Cc2ccc3ccccc3c2)NC(=O)[C@@H]2CCCN2C1=O`, the IC50 [2] was 11 nM, the IC50 [3] was 3.54 nM and the EC50 [4] was 25 nM.
`CCCC[C@H](NC(C)=O)C(=O)N[C@H]1CC(=O)NCCCC[C@@H](C(=O)N[C@@H](C(=O)N[C@@H](CCCNC(=N)N)C(N)=O)C(C)C)NC(=O)[C@H](Cc2c[nH]c3ccccc23)NC(=O)[C@H](CCCNC(=N)N)NC(=O)[C@@H](Cc2ccc3ccccc3c2)NC(=O)[C@@H]2CCCN2C1=O` gave an IC50 [2] of 16 nM, an IC50 [3] of 0.9 nM and an EC50 [4] of 1.1 nM.
In the case of `CCCC[C@H](NC(C)=O)C(=O)N[C@H]1CC(=O)NCCCC[C@@H](C(=O)N[C@@H](C(=O)N2CCC[C@@H]2C(N)=O)C(C)C)NC(=O)[C@H](Cc2c[nH]c3ccccc23)NC(=O)CNC(=O)[C@@H](Cc2ccc3ccccc3c2)NC(=O)[C@@H]2CCCN2C1=O`, the EC50 [1] is reported as greater than 1000 nM.
`CCCC[C@H](NC(C)=O)C(=O)N[C@H]1CC(=O)NCCCC[C@@H](C(=O)N[C@@H](C(=O)N2CCC[C@@H]2C(N)=O)C(C)C)NC(=O)[C@H](Cc2c[nH]c3ccccc23)NC(=O)[C@H](CCCNC(=N)N)NC(=O)[C@@H](Cc2ccc3ccccc3c2)NC(=O)[C@H](C(C)C)NC1=O` gave an IC50 [2] of 11 nM, an IC50 [3] of 4.38 nM and an EC50 [4] of 54 nM.
`CCC[C@H](NC(C)=O)C(=O)N[C@H]1CC(=O)NCCCC[C@@H](C(=O)N[C@@H](C(=O)N2CCC[C@@H]2C(N)=O)C(C)C)NC(=O)[C@H](Cc2c[nH]c3ccccc23)NC(=O)[C@H](CCCNC(=N)N)NC(=O)[C@@H](Cc2ccc3ccccc3c2)NC(=O)[C@@H]2CCCN2C1=O` showed an IC50 [2] of 130 nM, an IC50 [3] of 2.44 nM and an EC50 [4] of 100 nM.
With `CCCC[C@H](NC(C)=O)C(=O)N[C@H]1CC(=O)NCCCC[C@@H](C(=O)N[C@H](C(N)=O)C(C)C)NC(=O)[C@H](Cc2c[nH]c3ccccc23)NC(=O)[C@H](CCCNC(=N)N)NC(=O)[C@@H](Cc2ccc3ccccc3c2)NC(=O)[C@@H]2CCCN2C1=O` the IC50 [2] was 46 nM, the IC50 [3] was 1.77 nM and the EC50 [4] was 3 nM.
`CCCC[C@H](NC(C)=O)C(=O)N[C@H]1CC(=O)NCCCC[C@@H](C(=O)N[C@H](CCCNC(=N)N)C(N)=O)NC(=O)[C@H](Cc2c[nH]c3ccccc23)NC(=O)[C@H](CCCNC(=N)N)NC(=O)[C@@H](Cc2ccc3ccccc3c2)NC(=O)[C@@H]2CCCN2C1=O` showed an IC50 [2] of 12 nM, an IC50 [3] of 0.73 nM and an EC50 [4] of 8.3 nM.
Molecule `CCCC[C@H](NC(C)=O)C(=O)N[C@H]1CC(=O)NCCCC[C@@H](C(=O)N[C@H](CCCNC(=N)N)C(=O)N2CCC[C@@H]2C(N)=O)NC(=O)[C@H](Cc2c[nH]c3ccccc23)NC(=O)[C@H](CCCNC(=N)N)NC(=O)[C@@H](Cc2ccc3ccccc3c2)NC(=O)[C@@H]2CCCN2C1=O` has an IC50 [2] of 0.95 nM, an IC50 [3] of 0.45 nM and an EC50 [4] of 0.19 nM.
`CCCC[C@H](NC(C)=O)C(=O)N[C@H]1CC(=O)NCCCC[C@@H](C(=O)N[C@@H](CCCNC(=N)N)C(=O)N2CCC[C@@H]2C(=O)N[C@@H](C(N)=O)C(C)C)NC(=O)[C@H](Cc2c[nH]c3ccccc23)NC(=O)[C@H](CCCNC(=N)N)NC(=O)[C@@H](Cc2ccc3ccccc3c2)NC(=O)[C@@H]2CCCN2C1=O` was tested, and the IC50 [2] was 32 nM, the IC50 [3] was 2.1 nM and the EC50 [4] was 7.6 nM.
In the case of `CCCC[C@H](NC(C)=O)C(=O)N[C@H]1CC(=O)NCCCC[C@@H](C(=O)N[C@@H](C(=O)N[C@@H](C(N)=O)C(C)C)C(C)C)NC(=O)[C@H](Cc2c[nH]c3ccccc23)NC(=O)[C@H](CCCNC(=N)N)NC(=O)[C@@H](Cc2ccc3ccccc3c2)NC(=O)[C@@H]2CCCN2C1=O`, the IC50 [2] is reported as 21 nM, the IC50 [3] is reported as 3.72 nM and the EC50 [4] is reported as 70 nM.
In the case of `CCCC[C@H](NC(C)=O)C(=O)N[C@H]1CC(=O)NCCCC[C@@H](C(=O)N[C@@H](C(=O)N2CCC[C@@H]2C(N)=O)C(C)C)NC(=O)[C@H](Cc2c[nH]c3ccccc23)NC(=O)[C@H](CCC(=O)O)NC(=O)[C@@H](Cc2ccc3ccccc3c2)NC(=O)[C@@H]2CCCN2C1=O`, the EC50 [1] is reported as greater than 1000 nM.
For `CCCC[C@H](NC(C)=O)C(=O)N[C@H]1CC(=O)NCCCC[C@@H](C(=O)N[C@@H](C(=O)N[C@H](CCCNC(=N)N)C(N)=O)C(C)C)NC(=O)[C@H](Cc2c[nH]c3ccccc23)NC(=O)[C@H](CCCNC(=N)N)NC(=O)[C@@H](Cc2ccc3ccccc3c2)NC(=O)[C@@H]2CCCN2C1=O`, the IC50 [2] was 29 nM, the IC50 [3] was 1.07 nM and the EC50 [4] was 3.8 nM.
`CCCC[C@H](NC(C)=O)C(=O)N[C@H]1CC(=O)NCCCC[C@@H](C(=O)N[C@@H](CCCNC(=N)N)C(=O)N2CCC[C@H]2C(=O)N[C@H](C(N)=O)C(C)C)NC(=O)[C@H](Cc2c[nH]c3ccccc23)NC(=O)[C@H](CCCNC(=N)N)NC(=O)[C@@H](Cc2ccc3ccccc3c2)NC(=O)[C@@H]2CCCN2C1=O` was tested, and the IC50 [2] was 15 nM, the IC50 [3] was 0.68 nM and the EC50 [4] was 0.28 nM.
`CCCC[C@H](NC(C)=O)C(=O)N[C@H]1CC(=O)NCCCC[C@@H](C(=O)N[C@@H](C(=O)N2CCC[C@@H]2C(N)=O)C(C)C)NC(=O)[C@H](Cc2c[nH]c3ccccc23)NC(=O)[C@H](CCCNC(=N)N)NC(=O)[C@@H](Cc2ccc3ccccc3c2)NC(=O)[C@@H](C)NC1=O` gave an IC50 [2] greater than 1000 nM, an IC50 [3] of 665 nM and an EC50 [4] of 220 nM.
In the case of `CCCC[C@H](NC(C)=O)C(=O)N[C@H]1CC(=O)NCCCC[C@@H](C(=O)N[C@@H](CCCNC(=N)N)C(=O)N2CCC[C@@H]2C(N)=O)NC(=O)[C@H](Cc2c[nH]c3ccccc23)NC(=O)[C@H](CCCNC(=N)N)NC(=O)[C@@H](Cc2ccc3ccccc3c2)NC(=O)[C@@H]2CCCN2C1=O`, the IC50 [2] is reported as 15 nM, the IC50 [3] is reported as 1.63 nM and the EC50 [4] is reported as 0.82 nM.
